Some results are limits rather than exact numbers.

The text below walks through data of PMC5199614 (Journal of bone and mineral research : the official journal …, 2016).

This data set in a line: Persistence of injected ligand in mouse blood and urine. The settings on record: mice, iv 50 nmol/kg.

Take “[Lys^13(tetramethyl rhodamine {TMR}), Cys^35(PEG-20,000 Da)]PTH(1-35) [PEG-PTH^TMR]”: the “TMR fluorescence in urine, versus PTH^TMR” value (spot urine) was “less TMR fluorescence detected in the urine”. Moreover, the “last time point at which plasma TMR fluorescence was detected” value (1 μL plasma in PBS, TMR fluorescence, n = 6) is ≥ 8 h. In addition, the “persistence (detectability) in the circulation after injection” value (cAMP bioassay and TMR fluorescence of blood) was > 24 h.
